Test system: MLO-Y4 osteocytes
Assay: High-throughput drug screening of primary cilia length and incidence
Format: cell-based
Method: MLO-Y4 osteocytes were maintained on collagen I-coated dishes in MEMα (Life_Technologies) supplemented with 5% fetal bovine serum (FBS), 5% calf serum (CS), and 1% penicillin/streptomycin (P/S) at 37° C. and 5% CO2. Osteocytes were then seeded onto 384-well collagen-coated plates for 72 hours before fixation. […] These libraries include Tocris, Sigma LOPAC, Selleck Chemical, Prestwick, and Spectrum commercially available compound libraries. All cell seeding and plate handling was performed with the Perkin Elmer cell:explorer workstation.
Cells were fixed in 4% paraformaldehyde and permeabilized with 0.1% Triton-X 100 (Sigma). 10% goat serum (vendor) was used for blocking. Cilia were stained using a monoclonal antibody against acetylated α-tubulin (1:20) from a C3B9 hybridoma cell line, and visualized with A F488 (1:1000, ThermoFisher). Nuclei were visualized with Hoechst. Cells were imaged using a GE INCell 2000 high-throughput imager at 40× magnification. 4 fields of view were taken per well.
Each pair of nuclei and cilia images was first analyzed individually, then the entire population was examined to evaluate each compound's effect on cilia length and incidence. […] The augmentation of the algorithm incorporates thresholding for noise removal based on signal intensity and object size, nuclei dilation to exclude non-cellular artifacts, as well as skeletonization of cilia to quantify length. […]

Row | Compound | Average Length SD Away [SD] | Average Incidence SD Away [SD]
1 | O=[N+]([O-])c1ccc(-c2nc(-c3ccncc3)c(-c3ccc(F)cc3)[nH]2)cc1 [PD 169316] | 3.454 | –
2 | C[C@@H](O)[C@H]1C(=O)N2C(C(=O)OCOC(=O)C(C)(C)C)=C(SC3CN(C4=NCCS4)C3)[C@H](C)[C@H]12 [Tebipenem pivoxil (L-084), Tebipenem pivoxil] | – | 1.857

Source: patent US20190015423A1, “REGULATION OF GENE EXPRESSION BY MODULATING PRIMARY CILIA LENGTH” (THE TRUSTEES OF COLUMBIA UNIVERSITY IN THE CITY OF NEW YORK, priority 2016, published 2019)
